## Yeast mating assay B: variants of the scFv Ab-14

Target: peptide PDVDLGDISGINAS, taken from heptad repeat 2 (HR2) of SARS-CoV-2 spike.

Each scFv is VH, a (GGGGS)3 linker, VL, as in the parent Ab-14, and differs from it in the CDRs of the light chain only.
VH: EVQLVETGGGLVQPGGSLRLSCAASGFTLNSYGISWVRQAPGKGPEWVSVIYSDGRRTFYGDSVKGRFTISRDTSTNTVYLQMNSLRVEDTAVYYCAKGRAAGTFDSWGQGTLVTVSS
VL: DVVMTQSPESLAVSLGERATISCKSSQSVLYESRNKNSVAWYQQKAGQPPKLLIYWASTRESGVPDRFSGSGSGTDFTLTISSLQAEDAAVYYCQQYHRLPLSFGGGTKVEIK

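The parent was found by panning a naive human phage display library on the peptide. Designed CDR sequences, proposed from the first random library and measured here. Their group label is 14L_GP_Gen (GP: Gaussian process model; Gen: genetic algorithm; a sequence that several methods proposed may carry one label only). The scFvs were displayed on barcoded MATa yeast, the peptide on MATalpha yeast. Pairs that bind mate more often; barcode pairs of the diploids are counted by sequencing. Scores were corrected for input abundance and mapped to Kd with protein pairs of known affinity run in the same pool. Mating was done six times.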

Positions count from residue 1 of the parent VL; S25L puts L in place of S.
The read-out is the apparent dissociation constant on a log10 scale (nM): the lower, the stronger.
"nd" marks a missing value. The strain was present, yet no cells mated with the target were sequenced in that replicate, which points to weak or no binding.
The authors' rule: three or more of the six replicates give a measured affinity, fewer mean a poor binder.
Empty control strains, which show no peptide, gave a signal in 4% of pairings with all light chain designs; the median was 2.64 and 95% of these signals were weaker than 1.59. No background was subtracted. For each scFv, signals with the empty controls are counted beside the result, with their mean in brackets.
A sequence measured in both rounds can read differently, since the two assays cover different ranges.

{"changes": "S25L S26D V29Q W56N", "log10 Kd (nM) by replicate": "0.52 0.33 0.29 0.18 -0.04 0.62", "signal with controls": "2/18 (3.25)"}
{"changes": "S25F W56N S103M", "log10 Kd (nM) by replicate": "0.00 -0.06 0.04 -0.20 -0.15 0.07", "signal with controls": "4/18 (2.91)"}
{"changes": "S25L L30M W56E S62E", "log10 Kd (nM) by replicate": "-0.21 -0.40 -0.39 -0.45 0.00 -0.42", "signal with controls": "1/18 (4.41)"}
{"changes": "S25L N35M W56N E61M", "log10 Kd (nM) by replicate": "-0.04 -0.09 -0.24 -0.27 -0.25 -0.06", "signal with controls": "0/18"}
{"changes": "S25F S26E W56N A57G", "log10 Kd (nM) by replicate": "-0.18 -0.26 -0.40 -0.48 -0.33 -0.29", "signal with controls": "1/18 (4.74)"}
{"changes": "S25F N35M W56N T59Q", "log10 Kd (nM) by replicate": "0.00 -0.26 -0.03 -0.36 -0.14 -0.05", "signal with controls": "1/18 (2.34)"}
{"changes": "S25L V29E W56N E61R", "log10 Kd (nM) by replicate": "-0.11 -0.20 -0.05 -0.84 -0.26 -0.64", "signal with controls": "0/18"}
{"changes": "S25L S38N W56D E61C", "log10 Kd (nM) by replicate": "-0.50 -0.56 -0.68 -0.64 -0.60 -0.45", "signal with controls": "1/18 (3.28)"}
{"changes": "S25F Q27P W56D", "log10 Kd (nM) by replicate": "-0.22 -0.17 -0.49 -0.49 -0.41 -0.41", "signal with controls": "2/18 (2.56)"}
{"changes": "S25L S26Q V29H L30E W56N", "log10 Kd (nM) by replicate": "0.26 0.37 0.32 0.06 0.41 0.19", "signal with controls": "0/18"}
{"changes": "S25V V29G W56N Q96D", "log10 Kd (nM) by replicate": "0.20 0.07 -0.04 -0.19 -0.09 0.23", "signal with controls": "0/18"}
{"changes": "S25L S28G V29W W56N T59Q", "log10 Kd (nM) by replicate": "-0.04 -0.18 -0.27 -0.23 -0.25 0.01", "signal with controls": "0/18"}
{"changes": "S25L N37W W56N", "log10 Kd (nM) by replicate": "0.01 0.01 -0.32 -0.18 -0.19 -0.05", "signal with controls": "2/18 (2.80)"}
{"changes": "S25L V29F W56E S62M", "log10 Kd (nM) by replicate": "-0.10 -0.49 -0.54 -0.35 -0.27 0.09", "signal with controls": "1/18 (2.66)"}
{"changes": "S25V V29H W56N S103M", "log10 Kd (nM) by replicate": "-0.32 -0.54 -0.52 -0.84 -0.64 -0.39", "signal with controls": "1/18 (1.64)"}
{"changes": "S25L K36S W56E", "log10 Kd (nM) by replicate": "-0.08 -0.19 -0.23 -0.43 -0.35 -0.19", "signal with controls": "2/18 (3.31)"}
{"changes": "S25V L30D W56D", "log10 Kd (nM) by replicate": "0.27 0.17 0.12 -0.50 0.50 -0.15", "signal with controls": "0/18"}
{"changes": "S25V L30Q W56E", "log10 Kd (nM) by replicate": "0.36 0.12 0.13 0.09 -0.18 0.41", "signal with controls": "1/18 (2.60)"}
{"changes": "S25L S26Y V29D W56G", "log10 Kd (nM) by replicate": "0.00 -0.31 -0.37 -0.34 -0.35 -0.04", "signal with controls": "0/18"}
{"changes": "S25L V29E W56N T59L", "log10 Kd (nM) by replicate": "0.56 0.62 0.14 0.35 0.56 0.71", "signal with controls": "2/18 (2.88)"}
{"changes": "S25L V29E S33D W56N T59Q E61L", "log10 Kd (nM) by replicate": "0.23 0.23 -0.19 0.07 -0.11 0.05", "signal with controls": "1/18 (2.48)"}
{"changes": "S25L W56N T59Q S62D", "log10 Kd (nM) by replicate": "-0.12 -0.23 -0.26 -0.27 -0.33 0.04", "signal with controls": "3/18 (3.28)"}
{"changes": "S25L L30M N35M W56N E61M", "log10 Kd (nM) by replicate": "0.82 0.54 0.31 0.63 0.82 0.74", "signal with controls": "0/18"}
{"changes": "S25L V29M W56N T59Q S62Q", "log10 Kd (nM) by replicate": "-0.34 -0.42 -0.35 -0.31 -0.36 -0.44", "signal with controls": "1/18 (3.40)"}
{"changes": "S25V S33D W56Q", "log10 Kd (nM) by replicate": "-0.25 -0.34 -0.32 -0.51 -0.41 -0.15", "signal with controls": "2/18 (2.96)"}
{"changes": "S25L V29E W56H E61C", "log10 Kd (nM) by replicate": "0.30 0.12 0.31 0.09 0.07 0.21", "signal with controls": "4/18 (2.95)"}
{"changes": "S25V S26Y V29H W56N", "log10 Kd (nM) by replicate": "nd nd nd nd nd nd", "signal with controls": "0/18"}
{"changes": "S25L W56S T59Q E61L", "log10 Kd (nM) by replicate": "0.22 0.01 -0.39 -0.03 0.34 0.00", "signal with controls": "2/18 (2.85)"}
{"changes": "S25F S38N W56G", "log10 Kd (nM) by replicate": "-0.05 -0.40 -0.39 -0.66 -0.63 -0.31", "signal with controls": "0/18"}
{"changes": "K24Y S25L W56H", "log10 Kd (nM) by replicate": "0.34 0.27 -0.12 0.31 -0.39 -0.08", "signal with controls": "1/18 (2.82)"}
{"changes": "S25V V29Q W56D T59Q", "log10 Kd (nM) by replicate": "0.91 0.79 0.57 0.34 0.85 0.68", "signal with controls": "1/18 (2.42)"}
{"changes": "S25L V29E W56N T59Q S62Q", "log10 Kd (nM) by replicate": "-0.11 -0.22 -0.46 -0.41 -0.48 -0.29", "signal with controls": "4/18 (3.75)"}

Top 3 of the variants detected in all replicates, tightest first:

{"changes": "S25L S38N W56D E61C", "log10 Kd (nM) by replicate": "-0.50 -0.56 -0.68 -0.64 -0.60 -0.45", "signal with controls": "1/18 (3.28)"}
{"changes": "S25V V29H W56N S103M", "log10 Kd (nM) by replicate": "-0.32 -0.54 -0.52 -0.84 -0.64 -0.39", "signal with controls": "1/18 (1.64)"}
{"changes": "S25F S38N W56G", "log10 Kd (nM) by replicate": "-0.05 -0.40 -0.39 -0.66 -0.63 -0.31", "signal with controls": "0/18"}

Reference: Li et al. 2023, doi:10.1038/s41467-023-39022-2. File: FLAb, binding data.